PubChem BioAssay AID720543 (The Scripps Research Institute Molecular Screening Center, 2013)
This is a selection; strong and weak results do not stand in their true shares. The source made the active and inactive calls.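 How the source made its calls: active means inhibition exceeding the mean over every tested compound plus 3 SD (cut at about 30% in these data); inactive means the rest.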

Amino acid sequences for entries named in this document (tags omitted). A change or cut given only in a name is not applied to a line headed by its entry.
UniProt Q8VD66: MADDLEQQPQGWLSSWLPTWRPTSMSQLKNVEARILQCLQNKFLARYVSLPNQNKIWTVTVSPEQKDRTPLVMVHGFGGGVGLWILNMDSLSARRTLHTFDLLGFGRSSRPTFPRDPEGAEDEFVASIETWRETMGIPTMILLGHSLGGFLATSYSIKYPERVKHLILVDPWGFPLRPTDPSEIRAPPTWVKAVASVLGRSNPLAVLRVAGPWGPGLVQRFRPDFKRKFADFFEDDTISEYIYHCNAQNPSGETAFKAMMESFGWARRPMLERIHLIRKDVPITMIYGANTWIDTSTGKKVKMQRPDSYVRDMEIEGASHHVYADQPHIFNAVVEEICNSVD

Molecular target: (Lyso)-N-acylphosphatidylethanolamine lipase (Mus musculus) (UniProt Q8VD66)
Experiment: mouse ABHD4 hydrolase activity blockers – biochemical, fluorescence polarization, primary screen (AID 720543);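 further: 0% = plate median of compound wells and 100% = S159A mutant with DMSO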
Settings: purified mABHD4, FP-Rh probe fluorescence polarization; at 8.92 µM; active compounds read high
Summary of the method: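 Assay system: Wild-type mouse ABHD4 protein | Medium: HEPES pH 7.0 buffer, 150 mM NaCl, 0.01% Pluronic F-127 | Incubation: Enzyme–compound pre-incubation 45 min, then probe 60 min, both 25 °C | Technique: Fluorescence polarization with parallel and perpendicular emission, 525/598 nm | Evaluation: % inhibition of FP-Rh probe binding versus controls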

SMILES | inhibition
O=C(Nc1cc([As](=O)(O)O)ccc1O)c1ccccc1 | inactive: 4.76%
O=P1(N(CCCl)CCCl)OCCCS1 (configuration not stated) | inactive: 2.17%
COC(=O)C1(C)COP(=O)(Nc2ccccc2)OC1 (configuration not stated) | inactive: 5.08%
O=[N+]([O-])c1cccc(NC2=NCC(CBr)S2)c1 (configuration not stated) | inactive: -4.95%
O=C(O)CNc1ccc([As](=O)(O)O)cc1 | inactive: 3.46%
CC(C)(C)C(=O)NC(Sc1ccncn1)C(Cl)(Cl)Cl (configuration not stated) | inactive: -3.96%
O=[N+]([O-])c1ncn(CCn2ncnc2[N+](=O)[O-])n1 | inactive: 0.58%
CC(=O)N1C2C3N(C(C)=O)C1C1N(C(C)=O)C(C(N1C(C)=O)N3C(C)=O)N2C(C)=O | inactive: 1.87%
O=[N+]([O-])c1cccc2n[nH]nc12 | inactive: -4.04%
O=[N+]([O-])c1cc([N+](=O)[O-])c(CCNc2ccccc2)c([N+](=O)[O-])c1 | active: 66.8%
CCc1nc2c(n1)c1c(non1O)c1c2no[n+]1[O-] | inactive: 3.24%
Cc1ccc(NP(=O)(Oc2ccccc2)Oc2ccccc2)nc1 | inactive: 0.48%
COc1ccc(C2=NCC(CBr)S2)cc1 (configuration not stated) | inactive: -3.08%
CN(C)C(=O)OCCc1n(C)cc[n+]1C | inactive: -1.76%
CC(C)c1nc(Nc2ccccc2)n(P(=O)(N(C)C)N(C)C)n1 | inactive: -7.59%
CC(C)=N/N=C(\N)N[N+](=O)[O-] | inactive: -0.71%
CC1CCN(C(=O)Oc2c(Cl)cc(Cl)c3cccnc23)CC1 | inactive: 20%
c1cc(-c2nn[nH]n2)ccc1-c1nn[nH]n1 | inactive: 8%
C[N+]1=C2C=CC=CC=C2SC12C([N+](=O)[O-])=CC([N+](=O)[O-])=C[C-]2[N+](=O)[O-] (configuration not stated) | active: 41.7%
Nc1ccc([As](=O)(O)c2ccc(N)cc2)cc1 | inactive: -3.79%
CCN(/C(=N/P(=O)(N1CCOCC1)N1CCOCC1)N1CCOCC1)c1ccc(OC)cc1 | inactive: -4.7%
Cc1ccc(OP(=O)(Nc2nccs2)Oc2ccc(C)cc2)cc1 | inactive: 1.35%
COc1ccccc1OP(=O)(Nc1ccc(C)cn1)Oc1ccccc1OC | inactive: -2.37%
CN1CCCC(OC(=O)C(c2ccccc2)c2ccccc2)C1 (configuration not stated) | inactive: 10.9%
Clc1ccc(Cl)c(NC2=NCC(CBr)S2)c1 (configuration not stated) | inactive: 6.67%
NC(=O)c1cc([N+](=O)[O-])cc([N+](=O)[O-])c1N | inactive: 1.81%

SMILES | inhibition
Cc1ccc(N/C(=N/P(=O)(N2CCOCC2)N2CCOCC2)N2CCOCC2)cc1 | inactive: 2.46%
CN(C(=O)Cc1ccc(Cl)c(Cl)c1)[C@H]1CCCC[C@H]1N1CCCC1 | inactive: 0.9%
Nc1cc(N)c2nonc2c1[N+](=O)[O-] | inactive: 0.2%
CC(C)CC(=O)NC(Sc1ccc(Cl)cc1)C(Cl)(Cl)Cl (configuration not stated) | inactive: -2.75%
O=C(NC(Sc1ccncn1)C(Cl)(Cl)Cl)c1ccccc1 (configuration not stated) | inactive: 5.46%
Oc1ccccc1CNc1ccccn1 | inactive: -0.62%
CN(C(=O)Cc1ccc(Cl)c(Cl)c1)[C@H]1CCCC[C@@H]1N1CCCC1 | inactive: -7.1%
Cc1ccc(NP(=O)(Oc2ccccc2F)Oc2ccccc2F)nc1 | inactive: 4.69%
Cc1cc(SC(NC(=O)c2ccc(F)cc2)C(Cl)(Cl)Cl)ncn1 (configuration not stated) | inactive: 6.56%
CCOP(=O)(Nc1ccccc1)OCC | inactive: -0.38%
CCn1c(=O)n(C2CCN(CC3CCCCCCC3)C[C@H]2CO)c2ccccc21 (some centres not stated) | inactive: 3.39%
CCCC1OP(N)(=O)OCC1CC (configuration not stated) | inactive: -4.42%
CC(=O)Nc1ccc([As](=O)(O)O)cc1 | inactive: 0.41%
O=C(O)c1ccccc1[As](=O)(O)O | inactive: 5.75%
O=P(Nc1nc2ccc(Cl)cc2s1)(c1ccccc1)c1ccccc1 | inactive: -13.7%
CN(C)P(=O)(N(C)C)n1c(Nc2ccccc2)nnc1-c1ccccc1 | inactive: -7.72%
CCN(N=Nc1nonc1N)c1nonc1N | inactive: 5.97%
CN(C(=O)Cc1ccccc1)C1CC[C@@]2(CCCO2)C[C@@H]1N1CCCC1 (some centres not stated) | inactive: 1.88%
Nc1cccc2ccc([As](=O)(O)O)cc12 | inactive: 21.2%
O=P1(N(CCCl)CCCl)OCCC2CCCCN21 (configuration not stated) | inactive: -6.34%
O=C(NC1CCS(=O)(=O)C1)NP(=S)(Oc1ccccc1)Oc1ccccc1 (configuration not stated) | inactive: -3.49%
CCNC(=S)/N=C(\N)N[N+](=O)[O-] | inactive: -0.7%
Cc1ccc(NP(=O)(Oc2cccc(C)c2)Oc2cccc(C)c2)nc1 | inactive: 1.77%
c1ccc(-c2nn[nH]n2)c(-c2nn[nH]n2)c1 | inactive: -3.71%
O=c1c2cc([N+](=O)[O-])ccc2[nH]c2c([N+](=O)[O-])cc([N+](=O)[O-])cc12 | inactive: 12.9%
CN(C)C(=O)Oc1noc2ccccc12 | inactive: -5.3%

SMILES | inhibition
CC(NC(=O)COC(=O)C(O)(c1ccccc1)c1ccccc1)c1ccccc1 (configuration not stated) | inactive: 0.03%
Cc1ccccc1OP(=O)(Nc1ccccn1)Oc1ccccc1C | inactive: -4.81%
Cc1ccc(OP(=O)(Nc2ccccn2)Oc2ccc(C)cc2)cc1 | inactive: -5.55%
CC(=O)NC(SC(=S)N(CC(C)C)CC(C)C)C(Cl)(Cl)Cl (configuration not stated) | inactive: 7.44%
COC(=O)c1cc2c(s1)N=C(c1ccccc1)N(C)P2(=O)N1CCOCC1 (configuration not stated) | inactive: 6.27%
CCC(=O)N1C2C3N(C(=O)CC)C1C1N(C(=O)CC)C(C(N1C(=O)CC)N3C(=O)CC)N2C(=O)CC | inactive: -1.39%
O=C(OC1CN2CCC1CC2)c1ccccc1 (configuration not stated) | inactive: 1.87%
CCc1cc(O)c([N+](=O)[O-])c(C)c1[N+](=O)[O-] | inactive: -5.46%
CC(C)(C)C(=O)NC(Sc1ccccc1)C(Cl)(Cl)Cl (configuration not stated) | inactive: -2.16%
CCOc1ccc(C2=NCC(CBr)S2)cc1 (configuration not stated) | inactive: 5.98%
O=P1(Nc2nc3ccc(Cl)cc3s2)COc2ccccc2O1 (configuration not stated) | inactive: 3.06%
CC(=O)Nc1ccc(Oc2c([N+](=O)[O-])cc([N+](=O)[O-])cc2[N+](=O)[O-])cc1 | inactive: 9.36%
CC(=O)Nc1ccc([As](=O)(O)O)c(O)c1 | inactive: 6.58%
COC(=O)C1(C)COP(=O)(NCc2ccccc2)OC1 (configuration not stated) | inactive: -3.55%
CC(=O)c1ccc(N2CC2c2ccncc2)cc1 (configuration not stated) | inactive: -1.79%
N#C/C(=C\c1ccc(N(CCBr)CCBr)cc1)C(N)=O | inactive: -1.55%
C[C@H]1OP(=O)(Oc2ccccc2)C[C@@H]2O[C@@H]21 (some centres not stated) | inactive: 1.53%
C[C@@H]1C=CCP(=O)(Oc2ccccc2)O1 (some centres not stated) | inactive: -3.83%
Cc1ccccc1CN(C)C(=O)COC(=O)C(O)(c1ccccc1)c1ccccc1 | inactive: -11.7%
c1nnnn1CCn1cnnn1 | inactive: -0.42%
O=P(Nc1nccs1)(c1ccccc1)c1ccccc1 | inactive: 2.42%
CC(C)C(=O)NC(Sc1ccccc1)C(Cl)(Cl)Cl (configuration not stated) | inactive: 1.31%
C[C@H]1OP(=O)(Oc2ccccc2)[C@H](O)[C@H](O)[C@H]1N=[N+]=[N-] (some centres not stated) | inactive: 1.68%
O=P(Nc1nc2ccccc2s1)(c1ccccc1)c1ccccc1 | inactive: -5.2%
COc1ccc(N)c([N+](=O)[O-])c1[N+](=O)[O-] | inactive: 4.51%
Nc1ccc(CCCCOc2ccccc2)cc1 | inactive: -7.43%

SMILES | inhibition
CN(C)C1(CNC(=O)c2ccc(Cl)c(S(N)(=O)=O)c2)CCCCC1 | inactive: -1.84%
O=P(Nc1ccccn1)(c1ccc(Br)cc1)c1ccc(Br)cc1 | inactive: 4.65%
C(Cc1nn[nH]n1)Cc1nn[nH]n1 | inactive: 5.31%
Nc1ccc([As](=O)(O)c2ccc([N+](=O)[O-])cc2)cc1 | inactive: 0.57%
C/C(N)=N\P(=O)(OCc1ccccc1)OCc1ccccc1 | inactive: 0.15%
O=C(OC1CN2CCC1CC2)c1cccc(Cl)c1 (configuration not stated) | inactive: 1.36%
O=[N+]([O-])c1ncn(CCn2cnc([N+](=O)[O-])n2)n1 | inactive: -0.66%
CC(=O)NC(SC(=S)N(C)C)C(Cl)(Cl)Cl (configuration not stated) | inactive: -2.49%
O=[As](O)(c1ccccc1)c1ccc(O)cc1 | inactive: -1.18%
CCCC1OP(=O)(Nc2ccccc2)OCC1CC (configuration not stated) | inactive: 1.68%
O=C(/C=C/c1ccccc1)OC1CN2CCC1CC2 (configuration not stated) | inactive: -1.32%
CN(C)C1(CNC(=O)c2ccc(S(C)(=O)=O)cc2)CCCCC1 | inactive: 2.28%
Cc1ccc(C(=O)OC2CN3CCC2CC3)cc1 (configuration not stated) | inactive: 2.96%
CC1CCC(C(C)C)C(OP(=O)(Nc2ccccn2)c2ccccc2)C1 (configuration not stated) | inactive: -4.57%
Cc1nn(-c2ccccc2)c2c1P(=O)(N1CCOCC1)N(C)C(c1ccccc1)=N2 (configuration not stated) | inactive: -1.13%
O=[As](O)(c1cccs1)c1cccs1 | inactive: 2.43%
Cc1ccc(OCC(=O)OC2CN3CCC2CC3)cc1 (configuration not stated) | inactive: 4.47%
NS(=O)(=O)c1cccc(NC(=O)COC(=O)C(O)(c2ccccc2)c2ccccc2)c1 | inactive: -1.43%
O=P1(Nc2ccc(Br)cn2)COc2ccccc2OC1 | inactive: 3.04%
Nc1cccc([As](=O)(O)c2ccccc2)c1 | inactive: 2.44%
O=P1(Nc2ncccn2)COc2ccccc2OC1 | inactive: 3.5%
Cc1ccc(S(=O)(=O)N(CCCN)CCCc2c(C)nc(N)[nH]c2=O)cc1 | inactive: -5.89%
CC(C)(C)C(=O)NC(Sc1ncccn1)C(Cl)(Cl)Cl (configuration not stated) | inactive: -0.36%
Clc1n[nH]nc1-c1nn[nH][15n]1 | inactive: 4.64%
